# Like-named read-outs stand apart in the source and are kept apart here.
# Tested on: rats
# Conditions: IM
# [1] = dose 0.6 µM/kg, base and esters in sesame oil, HCl in 0.9% saline
Structure (SMILES),"Analgesic duration (dose 0.3 µM/kg, sesame oil)",Analgesic duration [1]
COC12CCC3(CC1C(C)(O)C(C)(C)C)C1Cc4ccc(OC(=O)CCCCCC(=O)Oc5ccc6c7c5OC5C8(OC)CCC9(CC8C(C)(O)C(C)(C)C)C(C6)N(CC6CC6)CCC759)c5c4C3(CCN1CC1CC1)C2O5 (stereo not shown),72 h,
CCCCCCCCCCCCCCCC(=O)Oc1ccc2c3c1OC1C4(OC)CCC5(CC4C(C)(O)C(C)(C)C)C(C2)N(CC2CC2)CCC315 (stereo not shown),,96 h
COC12CCC3(CC1C(C)(O)C(C)(C)C)C1Cc4ccc(OC(=O)CCCCCCCCC(=O)Oc5ccc6c7c5OC5C8(OC)CCC9(CC8C(C)(O)C(C)(C)C)C(C6)N(CC6CC6)CCC759)c5c4C3(CCN1CC1CC1)C2O5 (stereo not shown),96 h,
CCCCCCCCCC(=O)Oc1ccc2c3c1OC1C4(OC)CCC5(CC4C(C)(O)C(C)(C)C)C(C2)N(CC2CC2)CCC315 (stereo not shown),,96 h
COC12CCC3(CC1C(C)(O)C(C)(C)C)C1Cc4ccc(OC(=O)c5ccccc5)c5c4C3(CCN1CC1CC1)C2O5 (stereo not shown),,72 h
CCCCCCC(=O)Oc1ccc2c3c1OC1C4(OC)CCC5(CC4C(C)(O)C(C)(C)C)C(C2)N(CC2CC2)CCC315 (stereo not shown),,72 h
COC12CCC3(CC1C(C)(O)C(C)(C)C)C1Cc4ccc(OC(=O)C(C)(C)C)c5c4C3(CCN1CC1CC1)C2O5 (stereo not shown),,48 h
